# Assay: Ratio of inhibitory concentration against prostaglandin G/H synthase 1 to that of prostaglandin G/H synthase 2
smiles,measurement,value
NS(=O)(=O)c1ccc(-n2nc(C(F)(F)F)c3c2-c2ccccc2CC3)cc1,Ratio,1.09
